SMILES strings stand for the structures. Only a part is listed here, and it is no random draw. Some of these compounds have results that are not shown, active ones among them. The source made the active and inactive calls. No stated cut-off is given here; in the data, active means max response mostly above about 13% (no sharp cut-off); inactive means mostly below about 14%.

The assay is described as follows: Cycloheximide Counterscreen for Small Molecule Inhibitors of Shiga Toxin. Further: read at 38.3 µM for the half of the compounds with a filed dose; 0% is about no effect. The following applies: cell reporter, cycloheximide protein synthesis inhibition counterscreen; hits give high values.
Regarding `CC(C)N1C(=O)CC2(CCN(CCOC(=O)C(O)(c3ccccc3)c3ccccc3)CC2)C1=O`, the max response was inactive: 0.643%.
With `COc1cc(SC)ccc1C(=O)NCC1(N(C)C)CCCCC1`, the max response was inactive: -2.28%.
Turning to `CCN(CC)CC(C)C(C)OC(=O)C(O)(c1ccccc1)c1ccccc1` (centres undefined), the max response is inactive: 1.57%.
The value for `Cc1ccc(C(=O)NCC2(N3CCCCC3)CCCCC2)cc1` was inactive: -5.44%; that for `O=C(NCC1(N2CCCCC2)CCCCC1)c1cc([N+](=O)[O-])ccc1Cl` was inactive: -2%.
For `CN1[C@@H]2CC[C@H]1CC(OC(=O)C(O)(c1ccccc1)c1ccccc1)C2` (some centres undefined), the max response is inactive: -1.29%.
As for `O=C(NCC1(N2CCCCC2)CCCCC1)c1cc(F)c(F)cc1Cl`, the max response was inactive: -7.21%.
The value for `C=CCN1CCN(CCOC(=O)C(O)(c2ccccc2)c2ccccc2)CC1` was inactive: 4%; that for `O=C(NCC1(N2CCCCC2)CCCCC1)c1cccc(Br)c1` was inactive: -5.92%; that for `Cc1cc(C(=O)NCC2(N3CCCCC3)CCCCC2)ccc1[N+](=O)[O-]` was inactive: -6.7%.
For `CCN1CCCC(OC(=O)C2(O)c3ccccc3C=Cc3ccccc32)C1` (centres undefined), the max response was inactive: -2.51%.
The value for `COc1ccc(C(=O)NCC2(N(C)C)CCCCC2)cc1` was inactive: 5.85%.
On to `CN(C)C1CCCC1OC(=O)C(O)(c1ccccc1)c1ccccc1` (centres undefined), for which the max response is inactive: 3.88%.
For the molecule `CN(C)c1ccc(C(=O)NCC2(N(C)C)CCCCC2)cc1`, the max response was inactive: 1.53%.
The value for `Cc1ccccc1C(=O)NCC1(N2CCCCC2)CCCCC1` was inactive: -2.4%.
On to `COc1ccc(Cl)cc1C(=O)NCC1(N(C)C)CCCCC1`, for which the max response is inactive: 6.69%.
The figure for `COc1cccc(C(=O)NCC2(N3CCCCC3)CCCCC2)c1` is inactive: -1.77%; for `O=C(NCC1(N2CCCCC2)CCCCC1)c1cccc(Cl)c1` it is inactive: -2.24%; for `CN(C)C1(CNC(=O)c2ccc(Br)cc2)CCCCC1` it is inactive: 1.73%.
For `COc1cc(C(=O)NCC2(N(C)C)CCCCC2)c([N+](=O)[O-])cc1OC`, the max response was inactive: -4.21%.
Turning to `COc1ccc(Br)c(C(=O)NCC2(N3CCCCC3)CCCCC2)c1`, the max response is inactive: -0.864%.
In the case of `CN(C)c1cccc(C(=O)NCC2(N(C)C)CCCCC2)c1`, the max response was inactive: -4.38%.
`CC(C)Oc1ccc(C(=O)NCC2(N(C)C)CCCCC2)cc1`: the max response is inactive: 10.2%.
Turning to `O=C(OC1CN2CCC1CC2)C(CO)(c1ccccc1)c1ccccc1` (centres undefined), the max response is inactive: -2.54%.

For the origin of these results see PubChem BioAssay AID2314 (National Center for Advancing Translational Sciences (NCATS), 2010).
